Results from PMC3352927, “Development and Validation of an Automated High-Throughput System for Zebrafish In Vivo Screenings” (PLoS ONE, 2012).

Key:
zebrafish embryos = assay: Automated angiogenesis assay (ISV formation), Flk1:copGFP embryos treated at 22-26 hpf, read at 48 hpf; assay type: in vivo; settings: for IC50: Danio rerio; for Angiog. inhibition: presence or absence of an anti-angiogenic effect, 0.01-100 µM; for Anti-angiogenic phenotype (ISVs / DLAV): treated at 24 hpf, checked at 48 hpf
48 hpf zebrafish embryos = settings: blind screened between 1 and 200 µM; predominant effect
[1] = read-out: IC50 C.V. (complete number of vessels)
[2] = read-out: IC50 T.V. (total number of vessels)

CCN(CC)CCNC(=O)c1c(C)[nH]c(/C=C2\C(=O)Nc3ccc(F)cc32)c1C [Sunitinib malate]
IC50 (zebrafish embryos; [1]): 1700 nM | IC50 (zebrafish embryos; [2]): 2600 nM | Angiog. inhibition (zebrafish embryos): Yes | Anti-angiogenic phenotype (ISVs / DLAV) (zebrafish embryos): the formation of ISVs was perturbed with defective or total absence of sprouting

CNC(=O)c1cc(Oc2ccc(NC(=O)Nc3ccc(Cl)c(C(F)(F)F)c3)cc2)ccn1 [Sorafenib Tosylate]
IC50 (zebrafish embryos; [1]): 530 nM | IC50 (zebrafish embryos; [2]): 780 nM | Angiog. inhibition (zebrafish embryos): Yes | Anti-angiogenic phenotype (ISVs / DLAV) (zebrafish embryos): the formation of ISVs was perturbed with defective or total absence of sprouting; also recorded: lower number of incomplete ISVs

Cc1nc2n(c(=O)c1CCN1CCC(c3noc4cc(F)ccc34)CC1)CCCC2 [Risperidone]
Cardiotoxic effect in zebrafish (48 hpf zebrafish embryos): Arrhythmia 2∶1

“Also recorded” adds a separate entry of the source. Counter-ions that a name gives are not always drawn. Like-named read-outs stand apart in the source and are kept apart here.
